Values of other authors in patent US20220257540A1, “COMPOSITIONS AND METHODS FOR TREATMENT OF HEPATITIS B VIRUS INFECTION” (ANHUI RONGHANG BIOTECH DEVELOPMENT CO., LTD., priority 2019, published 2022).

Conditions: cited from earlier work

SMILES: COc1cc2c(c(OC)c1OC)-c1ccc(OC)c(=O)cc1[C@@H](NC(C)=O)CC2 [Colchicine, N [5,6,7,9-tetrahydro-1,2,3,10-tetratmethoxy 9-oxobenzo[a]heptalen-7-yl], (S)-acetamide]
- outcome of overdose (ingested from 0.5 to 0.8 mg/kg): more severe adverse reactions, including myelosuppression
- outcome of overdose (ingested less than 0.5 mg/kg): survived

Where two headings read alike, the source gives them in different places.
